Experimental data published in US20180355033A1, “ANTIBODIES, COMPOUNDS AND SCREENS FOR IDENTIFYING AND TREATING CACHEXIA OR PRE-CACHEXIA” (Dana-Farber Cancer Institute, Inc., priority 2015, published 2018).

Test system: human muscle cells
Experiment: Competition/depletion of RAGE ligands with recombinant soluble RAGE, MyoHC loss
Format: cell-based
Experimental: Muscle cells were treated with 1, 2, 10, 30 μg/ml rsRAGE in the presence of either cachexia-inducing conditioned media (CI-CM) or non-cachexia-inducing conditioned media (NCI-CM). […] RAGE ligands were depleted by treatment with 10 μg/ml rsRAGE and reconstituted by treatment with 1×, 0.5×, 0.25× of eluent (PBS).

Substance: rsRAGE: recombinant soluble RAGE that competes with membrane-bound RAGE for binding RAGE ligands
- inhibition of cachectic induced loss of MyoHC protein (1, 2, 10, 30 μg/ml rsRAGE with CI-CM or NCI-CM): inhibit the cachectic induced loss of MyoHC protein
- depletion of cachexia activity from conditioned media (FIG. 39): depletes conditioned media of cachexia activity
